# Paper PMC12207880 (The Oncologist, 2025)
# System: patients with advanced solid tumors
# Details: N = 3
structure (smiles),measurement,setting,value
Cc1nc2c(F)cc(-c3nc(Nc4ccc5c(n4)CCN(CCN(C)C)C5)ncc3F)cc2n1C1CC1,"Abdominal pain, Grade All",50 mg QD,0 n (%)
same,"Abdominal pain, Grade ≥3",50 mg QD,0 n (%)
same,"Alanine aminotransferase increased, Grade All",50 mg QD,0 n (%)
same,"Alanine aminotransferase increased, Grade ≥3",50 mg QD,0 n (%)
same,"Alkaline phosphatase increased, Grade All",50 mg QD,1 (33.3) n (%)
same,"Alkaline phosphatase increased, Grade ≥3",50 mg QD,0 n (%)
same,"All TRAEs, Grade All",50 mg QD,3 (100) n (%)
same,"All TRAEs, Grade ≥3",50 mg QD,2 (66.7) n (%)
same,"Anaemia, Grade All",50 mg QD,2 (66.7) n (%)
same,"Anaemia, Grade ≥3",50 mg QD,1 (33.3) n (%)
same,"Appetite decreased, Grade All",50 mg QD,0 n (%)
same,"Appetite decreased, Grade ≥3",50 mg QD,0 n (%)
same,"Aspartate aminotransferase increased, Grade All",50 mg QD,0 n (%)
same,"Aspartate aminotransferase increased, Grade ≥3",50 mg QD,0 n (%)
same,"Blood creatinine increased, Grade All",50 mg QD,0 n (%)
same,"Blood creatinine increased, Grade ≥3",50 mg QD,0 n (%)
same,"Blood lactic dehydrogenase increased, Grade All",50 mg QD,0 n (%)
same,"Blood lactic dehydrogenase increased, Grade ≥3",50 mg QD,0 n (%)
same,"Diarrhoea, Grade All",50 mg QD,1 (33.3) n (%)
same,"Diarrhoea, Grade ≥3",50 mg QD,0 n (%)
same,"Dizziness, Grade All",50 mg QD,2 (66.7) n (%)
same,"Dizziness, Grade ≥3",50 mg QD,0 n (%)
same,"Electrocardiogram QT prolonged, Grade All",50 mg QD,0 n (%)
same,"Electrocardiogram QT prolonged, Grade ≥3",50 mg QD,0 n (%)
same,"Fatigue, Grade All",50 mg QD,0 n (%)
same,"Fatigue, Grade ≥3",50 mg QD,0 n (%)
same,"Haematuria, Grade All",50 mg QD,1 (33.3) n (%)
same,"Haematuria, Grade ≥ 3",50 mg QD,0 n (%)
same,"Hypoalbuminemia, Grade All",50 mg QD,0 n (%)
same,"Hypoalbuminemia, Grade ≥3",50 mg QD,0 n (%)
same,"Hypokalaemia, Grade All",50 mg QD,0 n (%)
same,"Hypokalaemia, Grade ≥3",50 mg QD,0 n (%)
same,"Hyponatraemia, Grade All",50 mg QD,0 n (%)
same,"Hyponatraemia, Grade ≥3",50 mg QD,0 n (%)
same,"Leucocyte count decreased, Grade All",50 mg QD,1 (33.3) n (%)
same,"Leucocyte count decreased, Grade ≥3",50 mg QD,0 n (%)
same,"Lymphocyte count decreased, Grade All",50 mg QD,1 (33.3) n (%)
same,"Lymphocyte count decreased, Grade ≥3",50 mg QD,1 (33.3) n (%)
same,"Nausea, Grade All",50 mg QD,0 n (%)
same,"Nausea, Grade ≥3",50 mg QD,0 n (%)
same,"Neutrophil count decreased, Grade All",50 mg QD,1 (33.3) n (%)
same,"Neutrophil count decreased, Grade ≥3",50 mg QD,0 n (%)
same,"Platelet count decreased, Grade All",50 mg QD,1 (33.3) n (%)
same,"Platelet count decreased, Grade ≥3",50 mg QD,0 n (%)
same,"Rash, Grade All",50 mg QD,1 (33.3) n (%)
same,"Rash, Grade ≥3",50 mg QD,0 n (%)
same,"Vomiting, Grade All",50 mg QD,0 n (%)
same,"Vomiting, Grade ≥3",50 mg QD,0 n (%)
same,"γ-glutamyl transpeptidase increased, Grade All",50 mg QD,1 (33.3) n (%)
same,"γ-glutamyl transpeptidase increased, Grade ≥3",50 mg QD,0 n (%)
same,"Abdominal pain, Grade All",100 mg QD,0 n (%)
same,"Abdominal pain, Grade ≥3",100 mg QD,0 n (%)
same,"Alanine aminotransferase increased, Grade All",100 mg QD,0 n (%)
same,"Alanine aminotransferase increased, Grade ≥3",100 mg QD,0 n (%)
same,"Alkaline phosphatase increased, Grade All",100 mg QD,1 (33.3) n (%)
same,"Alkaline phosphatase increased, Grade ≥3",100 mg QD,0 n (%)
same,"All TRAEs, Grade All",100 mg QD,3 (100) n (%)
same,"All TRAEs, Grade ≥3",100 mg QD,0 n (%)
same,"Anaemia, Grade All",100 mg QD,1 (33.3) n (%)
same,"Anaemia, Grade ≥3",100 mg QD,0 n (%)
same,"Appetite decreased, Grade All",100 mg QD,0 n (%)
same,"Appetite decreased, Grade ≥3",100 mg QD,0 n (%)
same,"Aspartate aminotransferase increased, Grade All",100 mg QD,0 n (%)
same,"Aspartate aminotransferase increased, Grade ≥3",100 mg QD,0 n (%)
same,"Blood creatinine increased, Grade All",100 mg QD,1 (33.3) n (%)
same,"Blood creatinine increased, Grade ≥3",100 mg QD,0 n (%)
same,"Blood lactic dehydrogenase increased, Grade All",100 mg QD,0 n (%)
same,"Blood lactic dehydrogenase increased, Grade ≥3",100 mg QD,0 n (%)
same,"Diarrhoea, Grade All",100 mg QD,2 (66.7) n (%)
same,"Diarrhoea, Grade ≥3",100 mg QD,0 n (%)
same,"Dizziness, Grade All",100 mg QD,0 n (%)
same,"Dizziness, Grade ≥3",100 mg QD,0 n (%)
same,"Electrocardiogram QT prolonged, Grade All",100 mg QD,2 (66.7) n (%)
same,"Electrocardiogram QT prolonged, Grade ≥3",100 mg QD,0 n (%)
same,"Fatigue, Grade All",100 mg QD,0 n (%)
same,"Fatigue, Grade ≥3",100 mg QD,0 n (%)
same,"Haematuria, Grade All",100 mg QD,1 (33.3) n (%)
same,"Haematuria, Grade ≥ 3",100 mg QD,0 n (%)
same,"Hypoalbuminemia, Grade All",100 mg QD,0 n (%)
same,"Hypoalbuminemia, Grade ≥3",100 mg QD,0 n (%)
same,"Hypokalaemia, Grade All",100 mg QD,0 n (%)
same,"Hypokalaemia, Grade ≥3",100 mg QD,0 n (%)
same,"Hyponatraemia, Grade All",100 mg QD,0 n (%)
same,"Hyponatraemia, Grade ≥3",100 mg QD,0 n (%)
same,"Leucocyte count decreased, Grade All",100 mg QD,1 (33.3) n (%)
same,"Leucocyte count decreased, Grade ≥3",100 mg QD,0 n (%)
same,"Lymphocyte count decreased, Grade All",100 mg QD,1 (33.3) n (%)
same,"Lymphocyte count decreased, Grade ≥3",100 mg QD,0 n (%)
same,"Nausea, Grade All",100 mg QD,0 n (%)
same,"Nausea, Grade ≥3",100 mg QD,0 n (%)
same,"Neutrophil count decreased, Grade All",100 mg QD,1 (33.3) n (%)

# Like-named read-outs stand apart in the source and are kept apart here.
